Our source for the IC50 values is BindingDB's records for 22206546.

Chains of the proteins cited; added tags and fusions are not shown. Residues count along the entry.
UniProt P22303, 32-614 limits assumed: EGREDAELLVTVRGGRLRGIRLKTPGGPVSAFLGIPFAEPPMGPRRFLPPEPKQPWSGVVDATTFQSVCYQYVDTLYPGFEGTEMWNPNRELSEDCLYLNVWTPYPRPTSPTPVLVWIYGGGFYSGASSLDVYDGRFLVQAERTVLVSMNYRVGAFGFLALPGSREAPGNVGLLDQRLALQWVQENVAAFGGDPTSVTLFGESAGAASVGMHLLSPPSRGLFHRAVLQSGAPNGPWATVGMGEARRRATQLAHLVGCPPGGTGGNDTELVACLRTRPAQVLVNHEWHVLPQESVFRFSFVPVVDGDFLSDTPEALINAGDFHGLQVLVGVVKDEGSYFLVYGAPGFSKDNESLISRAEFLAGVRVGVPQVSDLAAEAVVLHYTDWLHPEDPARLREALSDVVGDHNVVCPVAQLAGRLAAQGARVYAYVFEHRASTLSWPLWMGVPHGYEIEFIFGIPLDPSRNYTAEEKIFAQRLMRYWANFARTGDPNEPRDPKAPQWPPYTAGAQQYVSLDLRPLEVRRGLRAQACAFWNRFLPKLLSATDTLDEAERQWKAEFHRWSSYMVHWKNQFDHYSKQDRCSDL
UniProt P06276, 29-602 limits assumed: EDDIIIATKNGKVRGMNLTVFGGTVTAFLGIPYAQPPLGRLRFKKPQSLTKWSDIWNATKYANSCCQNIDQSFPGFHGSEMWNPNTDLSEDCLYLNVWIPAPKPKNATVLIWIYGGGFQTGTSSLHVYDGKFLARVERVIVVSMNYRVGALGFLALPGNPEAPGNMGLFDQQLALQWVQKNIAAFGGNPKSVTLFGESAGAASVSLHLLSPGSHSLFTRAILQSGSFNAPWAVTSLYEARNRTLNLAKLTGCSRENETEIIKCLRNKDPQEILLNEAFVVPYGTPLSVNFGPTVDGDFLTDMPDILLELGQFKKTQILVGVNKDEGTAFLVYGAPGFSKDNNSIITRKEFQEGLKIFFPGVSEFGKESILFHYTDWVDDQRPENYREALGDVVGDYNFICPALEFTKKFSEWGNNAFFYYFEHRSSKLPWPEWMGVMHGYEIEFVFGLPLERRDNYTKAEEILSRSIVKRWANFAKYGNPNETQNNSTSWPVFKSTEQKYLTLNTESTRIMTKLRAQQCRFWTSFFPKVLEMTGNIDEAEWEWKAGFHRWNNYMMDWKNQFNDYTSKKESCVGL

Structures are written as SMILES. pIC50: −log10 of the molar value.

Assay [1] has as its target Acetylcholinesterase (Homo sapiens, UniProt P22303). The experiment in a line: Inhibition of human recombinant AChE using acetylthiocholine as substrate after 1 hr by Ellman method. For orientation: In Ellman's method for cholinesterases, released thiocholine reacts with DTNB.
Assay [2] deals with Cholinesterase (Homo sapiens, UniProt P06276). The assay is described as follows: Inhibition of human recombinant BChE using butyrylthiocholine as substrate after 20 mins by Ellman method.

Take `CCCCN1CCCN=C1CN=O`: in assay [1], the pIC50 – broadly, the IC50 on a negative log10 scale, so that one unit is a factor of ten – was 3.80.
Regarding `COCCCN=C(CN=O)N(C)C`, the pIC50 in assay [2] and in assay [1] was < 3.70 throughout.
With `CCCN=C(CN=O)N(C)C`, the pIC50 in assay [2] and in assay [1] was < 3.70 in each case.
`CN(C)C(CN=O)=NCc1ccccc1`: the negative-log IC50 (pIC50) in assay [2] is 3.85.
Take `CN(C)C(CN=O)=Nc1ccccc1`: the pIC50 in assay [2] and in assay [1] was < 3.70 each time.
`COCCN=C(CN=O)N(C)C`: the pIC50 in assay [2] and in assay [1] was < 3.70 throughout.
With `CCCCN1CC(C)(C)CN=C1CN=O`, the pIC50 in assay [2] was 3.94.
As to `CN(C)C(CN=O)=NC1CC1`, the pIC50 in assay [2] and in assay [1] was < 3.70 in each case.
For `CCCCN1CCN=C1CN=O`, the pIC50 in assay [2] and in assay [1] was < 3.70 throughout.
As to `CN(C)C(CN=O)=NC1CCC1`, the pIC50 in assay [2] and in assay [1] was < 3.70 in each case.
Regarding `CCCCCN=C(CN=O)N(C)C`, in assay [2], the pIC50 is 3.74.
